Sequences of proteins named here, by UniProt entry; tags and fusion partners are left off.
UniProt Q07820, whole entry: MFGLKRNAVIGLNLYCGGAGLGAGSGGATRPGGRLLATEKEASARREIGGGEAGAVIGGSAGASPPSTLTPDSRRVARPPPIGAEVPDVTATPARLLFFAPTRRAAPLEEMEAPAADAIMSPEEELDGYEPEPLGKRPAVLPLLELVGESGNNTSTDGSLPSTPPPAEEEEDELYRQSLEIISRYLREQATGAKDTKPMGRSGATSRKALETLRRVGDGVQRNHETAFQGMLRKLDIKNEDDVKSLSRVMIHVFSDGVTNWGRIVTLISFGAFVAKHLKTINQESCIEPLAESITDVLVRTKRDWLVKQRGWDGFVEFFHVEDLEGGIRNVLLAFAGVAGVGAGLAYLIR

In BindingDB's records for patent US10533010 (Vanderbilt University, 2020):

Each compound was assayed against Induced myeloid leukemia cell differentiation protein Mcl-1 (Homo sapiens, UniProt Q07820) (assay: Fluorescence Polarization Anisotropy Competition Assay).
Procedure: Compound affinity was measured using a fluorescence polarization anisotropy competition assay. Anisotropy measurements were carried out in 384-well, black, flat-bottom plates (Greiner Bio-one, Monroe, N.C., USA).

Ki, < 50 nM:
Cc1cc(OCCCc2c3n(c4c(-c5c(C)nn(C)c5C)c(Cl)ccc24)CCCN(Cc2ccc(C(=O)O)o2)C3=O)cc(C)c1Cl [US10533010, Example I-103]
Cc1cc(OCCCc2c3n(c4c(-c5c(C)nn(C)c5C)c(Cl)ccc24)CCCN(c2cc(C(=O)O)c4ccn(C)c4c2)C3=O)cc(C)c1Cl [US10533010, Example I-239]
Cc1cc(OCCCc2c(C(=O)NCc3cccc(C(=O)O)c3)[nH]c3c(-c4c(C)nn(C)c4C)c(Cl)ccc23)cc(C)c1Cl [US10533010, Example I-72]
